Each structure is given as a SMILES string. This is a selection; strong and weak results do not stand in their true shares. Some results for these compounds are left out of this collection, so the calls shown say nothing about other tests. Calls of active or inactive are those of the source. Calls follow the shape of the dose curve; as a rule, active = well fitted inhibition curve with a large enough effect in the polarisation, with a control signal flat (not every such curve was filed as active); inconclusive = small, poorly fitted or top-dose-only effect, or effect the other way, or a change in a side signal; inactive = no such curve, though single readings can be large or run the other way; the % refers to the polarisation.

Protein sequences, listed by entry. Tags and fused reporters are not part of them.
UniProt Q03164, whole entry: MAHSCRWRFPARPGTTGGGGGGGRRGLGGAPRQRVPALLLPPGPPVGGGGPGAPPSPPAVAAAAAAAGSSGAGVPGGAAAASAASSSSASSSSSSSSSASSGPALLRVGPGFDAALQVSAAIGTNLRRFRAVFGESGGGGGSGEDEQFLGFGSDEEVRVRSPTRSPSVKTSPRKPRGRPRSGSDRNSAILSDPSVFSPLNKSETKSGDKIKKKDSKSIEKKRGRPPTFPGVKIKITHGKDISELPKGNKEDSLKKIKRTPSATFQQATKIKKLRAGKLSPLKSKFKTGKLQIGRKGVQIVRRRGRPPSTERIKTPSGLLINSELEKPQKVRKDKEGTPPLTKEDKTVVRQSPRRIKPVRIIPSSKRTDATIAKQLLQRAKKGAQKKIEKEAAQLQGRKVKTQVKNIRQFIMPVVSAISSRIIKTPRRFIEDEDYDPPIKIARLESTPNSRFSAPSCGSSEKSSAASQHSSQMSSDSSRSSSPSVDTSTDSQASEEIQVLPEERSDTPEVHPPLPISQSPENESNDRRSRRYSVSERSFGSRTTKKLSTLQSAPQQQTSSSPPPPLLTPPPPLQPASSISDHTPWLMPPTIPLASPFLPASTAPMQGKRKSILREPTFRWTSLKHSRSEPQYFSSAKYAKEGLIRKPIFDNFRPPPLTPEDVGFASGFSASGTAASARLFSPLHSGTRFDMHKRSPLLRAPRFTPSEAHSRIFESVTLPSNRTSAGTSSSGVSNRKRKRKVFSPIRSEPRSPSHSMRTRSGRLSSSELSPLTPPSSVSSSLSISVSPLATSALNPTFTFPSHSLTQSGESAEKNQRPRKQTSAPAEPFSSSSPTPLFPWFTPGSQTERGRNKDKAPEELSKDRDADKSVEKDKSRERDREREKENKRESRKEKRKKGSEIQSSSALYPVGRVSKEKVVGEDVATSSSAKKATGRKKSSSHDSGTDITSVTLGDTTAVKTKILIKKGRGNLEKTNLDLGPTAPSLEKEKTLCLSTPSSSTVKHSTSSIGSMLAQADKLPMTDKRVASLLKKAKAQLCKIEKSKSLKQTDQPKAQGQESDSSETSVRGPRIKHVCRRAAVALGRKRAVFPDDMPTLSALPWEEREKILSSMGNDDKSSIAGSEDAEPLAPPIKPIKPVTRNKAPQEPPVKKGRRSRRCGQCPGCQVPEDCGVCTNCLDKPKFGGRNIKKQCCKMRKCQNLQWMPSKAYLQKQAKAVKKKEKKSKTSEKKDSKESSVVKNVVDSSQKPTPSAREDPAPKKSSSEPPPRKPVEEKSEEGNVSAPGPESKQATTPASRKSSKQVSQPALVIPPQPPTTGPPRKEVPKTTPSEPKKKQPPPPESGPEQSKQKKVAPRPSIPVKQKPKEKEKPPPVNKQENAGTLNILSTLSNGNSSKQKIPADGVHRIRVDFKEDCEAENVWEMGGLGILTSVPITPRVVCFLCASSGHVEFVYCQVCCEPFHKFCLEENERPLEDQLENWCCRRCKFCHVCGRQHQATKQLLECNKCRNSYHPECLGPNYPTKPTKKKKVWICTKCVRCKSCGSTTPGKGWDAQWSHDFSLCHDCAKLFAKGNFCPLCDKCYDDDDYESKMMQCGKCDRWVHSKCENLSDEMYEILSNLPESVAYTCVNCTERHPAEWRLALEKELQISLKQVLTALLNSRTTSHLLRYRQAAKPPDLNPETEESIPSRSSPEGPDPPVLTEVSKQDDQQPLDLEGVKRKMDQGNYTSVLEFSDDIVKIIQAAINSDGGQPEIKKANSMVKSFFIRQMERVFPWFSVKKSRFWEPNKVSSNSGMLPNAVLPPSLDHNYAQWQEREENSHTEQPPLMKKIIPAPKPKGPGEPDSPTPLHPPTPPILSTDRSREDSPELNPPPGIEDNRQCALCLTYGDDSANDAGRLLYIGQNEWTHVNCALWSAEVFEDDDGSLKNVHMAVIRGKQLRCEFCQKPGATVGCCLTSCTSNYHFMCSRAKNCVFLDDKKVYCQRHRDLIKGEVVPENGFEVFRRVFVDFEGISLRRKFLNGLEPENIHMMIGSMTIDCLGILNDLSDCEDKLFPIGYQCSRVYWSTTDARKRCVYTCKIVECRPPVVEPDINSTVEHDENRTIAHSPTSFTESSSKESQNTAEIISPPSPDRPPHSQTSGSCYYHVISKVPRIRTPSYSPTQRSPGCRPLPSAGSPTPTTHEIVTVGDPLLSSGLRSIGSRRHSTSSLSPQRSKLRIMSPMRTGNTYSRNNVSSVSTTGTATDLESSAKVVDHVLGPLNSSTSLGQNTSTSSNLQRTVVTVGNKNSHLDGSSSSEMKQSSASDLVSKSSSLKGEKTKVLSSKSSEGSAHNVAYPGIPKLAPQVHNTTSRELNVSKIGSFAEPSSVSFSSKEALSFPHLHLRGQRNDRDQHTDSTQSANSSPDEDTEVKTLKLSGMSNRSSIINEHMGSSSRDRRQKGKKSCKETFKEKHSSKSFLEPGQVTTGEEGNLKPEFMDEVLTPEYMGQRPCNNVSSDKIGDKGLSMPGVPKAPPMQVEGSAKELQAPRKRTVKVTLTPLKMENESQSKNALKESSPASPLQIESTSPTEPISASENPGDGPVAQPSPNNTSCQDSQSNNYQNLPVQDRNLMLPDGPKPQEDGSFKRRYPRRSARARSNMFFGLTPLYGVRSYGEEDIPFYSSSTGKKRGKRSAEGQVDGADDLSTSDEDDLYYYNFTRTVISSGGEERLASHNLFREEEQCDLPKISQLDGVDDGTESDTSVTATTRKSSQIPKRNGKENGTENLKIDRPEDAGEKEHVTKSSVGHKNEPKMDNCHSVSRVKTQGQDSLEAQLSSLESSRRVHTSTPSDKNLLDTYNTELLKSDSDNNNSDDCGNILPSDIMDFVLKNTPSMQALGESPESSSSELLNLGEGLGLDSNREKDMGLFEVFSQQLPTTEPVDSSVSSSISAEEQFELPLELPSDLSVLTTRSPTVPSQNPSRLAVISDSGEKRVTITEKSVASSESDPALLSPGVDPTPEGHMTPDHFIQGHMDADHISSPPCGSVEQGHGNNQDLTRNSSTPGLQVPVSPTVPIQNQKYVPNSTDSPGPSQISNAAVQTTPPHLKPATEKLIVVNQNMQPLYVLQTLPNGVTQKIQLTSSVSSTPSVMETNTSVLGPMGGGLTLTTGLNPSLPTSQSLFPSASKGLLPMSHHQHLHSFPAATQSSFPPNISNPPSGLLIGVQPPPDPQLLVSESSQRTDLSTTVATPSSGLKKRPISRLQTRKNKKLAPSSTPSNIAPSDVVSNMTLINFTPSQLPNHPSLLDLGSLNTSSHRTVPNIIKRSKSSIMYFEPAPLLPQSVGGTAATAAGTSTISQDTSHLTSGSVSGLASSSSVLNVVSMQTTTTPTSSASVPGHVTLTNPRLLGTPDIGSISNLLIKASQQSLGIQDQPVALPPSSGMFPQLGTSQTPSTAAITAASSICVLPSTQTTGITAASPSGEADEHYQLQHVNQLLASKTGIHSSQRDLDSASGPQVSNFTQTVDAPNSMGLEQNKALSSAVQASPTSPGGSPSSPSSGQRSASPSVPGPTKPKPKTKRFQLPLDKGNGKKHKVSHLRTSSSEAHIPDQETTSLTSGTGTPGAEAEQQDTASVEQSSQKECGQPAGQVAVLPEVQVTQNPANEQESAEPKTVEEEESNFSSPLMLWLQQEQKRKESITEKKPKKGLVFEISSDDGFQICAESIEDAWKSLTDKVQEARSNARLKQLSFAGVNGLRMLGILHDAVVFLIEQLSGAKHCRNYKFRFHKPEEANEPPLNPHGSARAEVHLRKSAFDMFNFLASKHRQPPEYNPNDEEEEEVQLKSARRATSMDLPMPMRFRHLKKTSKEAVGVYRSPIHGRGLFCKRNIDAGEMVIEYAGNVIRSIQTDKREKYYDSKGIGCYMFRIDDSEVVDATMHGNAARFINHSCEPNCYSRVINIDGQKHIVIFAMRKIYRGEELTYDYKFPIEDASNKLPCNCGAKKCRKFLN

For this test, the target named is Histone-lysine N-methyltransferase 2A (Homo sapiens) (UniProt Q03164). Kind of test: qHTS Fluorescence Polarization Assay for Inhibitors of MLL CXXC domain - DNA interaction. The note with it: MLL-CXXC / FITC-HOXA9 DNA fluorescence polarization; at 115 µM (top of the series).
Turning to `O=C(OC1CN2CCC1CC2)C(CO)(c1ccccc1)c1ccccc1` (stereo not given), the activity change, negative = inhibition was inactive: 7.43%.
Take `CC(C)Oc1ccc(C(=O)NCC2(N(C)C)CCCCC2)cc1`: the activity change, negative = inhibition is inactive: 6.33%.
For the compound `CN(C)c1cccc(C(=O)NCC2(N(C)C)CCCCC2)c1`, the activity change, negative = inhibition was inactive: -6.46%.
For the compound `COc1ccc(Br)c(C(=O)NCC2(N3CCCCC3)CCCCC2)c1`, the activity change, negative = inhibition is inactive: 30.9%.
Under `COc1cc(C(=O)NCC2(N(C)C)CCCCC2)c([N+](=O)[O-])cc1OC` stands inactive: 13.5%; under `CN(C)C1(CNC(=O)c2ccc(Br)cc2)CCCCC1`, inactive: -0.232%.
As for `O=C(NCC1(N2CCCCC2)CCCCC1)c1cccc(Cl)c1`, the activity change, negative = inhibition was inactive: -7.6%.
Then `COc1cccc(C(=O)NCC2(N3CCCCC3)CCCCC2)c1`, with inactive: 8.89%; and `COc1ccc(Cl)cc1C(=O)NCC1(N(C)C)CCCCC1`, with inactive: 11.5%.
Regarding `CN1CCCC(OC(=O)C(O)(c2ccccc2)c2ccccc2)C1` (stereo not given), the activity change, negative = inhibition is inactive: 5.49%.
Take `Cc1ccccc1C(=O)NCC1(N2CCCCC2)CCCCC1`: the activity change, negative = inhibition is inactive: 18.7%.
Under `CN(C)c1ccc(C(=O)NCC2(N(C)C)CCCCC2)cc1` stands inactive: 0.392%; under `CN(C)C1CCCC1OC(=O)C(O)(c1ccccc1)c1ccccc1` (stereo not given), inactive: 5.66%.
As to `COc1ccc(C(=O)NCC2(N(C)C)CCCCC2)cc1`, the activity change, negative = inhibition is inactive: 10.3%.
In the case of `CCN1CCCC(OC(=O)C2(O)c3ccccc3C=Cc3ccccc32)C1` (stereo not given), the activity change, negative = inhibition was inactive: 9.31%.
Consider `Cc1cc(C(=O)NCC2(N3CCCCC3)CCCCC2)ccc1[N+](=O)[O-]`, for which the activity change, negative = inhibition is inactive: -2.05%.
In the case of `O=C(NCC1(N2CCCCC2)CCCCC1)c1cccc(Br)c1`, the activity change, negative = inhibition is inactive: -2.14%.
As to `C=CCN1CCN(CCOC(=O)C(O)(c2ccccc2)c2ccccc2)CC1`, the activity change, negative = inhibition was inactive: -4.46%.
Regarding `O=C(NCC1(N2CCCCC2)CCCCC1)c1cc(F)c(F)cc1Cl`, the activity change, negative = inhibition is inactive: -6.54%.
As to `CN1[C@@H]2CC[C@H]1CC(OC(=O)C(O)(c1ccccc1)c1ccccc1)C2` (stereo not given in full), the activity change, negative = inhibition was inactive: -20.1%.
Take `O=C(NCC1(N2CCCCC2)CCCCC1)c1cc([N+](=O)[O-])ccc1Cl`: the activity change, negative = inhibition is inactive: 21.2%.
Take `Cc1ccc(C(=O)NCC2(N3CCCCC3)CCCCC2)cc1`: the activity change, negative = inhibition was inactive: 14.3%.
Under `CCN(CC)CC(C)C(C)OC(=O)C(O)(c1ccccc1)c1ccccc1` (stereo not given) stands inactive: -6.68%; under `COc1cc(SC)ccc1C(=O)NCC1(N(C)C)CCCCC1`, inactive: 3.77%.
For `CC(C)N1C(=O)CC2(CCN(CCOC(=O)C(O)(c3ccccc3)c3ccccc3)CC2)C1=O`, the activity change, negative = inhibition was inactive: -6.23%.
